# Values quoted from earlier work as cited in patent US20170044471A1, “Sulfate-Free Liquid Laundry Detergent” (The Sun Products Corporation, priority 2015, published 2017).
# System: Zein
# Settings: cited from earlier work
substance,measurement,value
Sodium Lauryl Sulfoacetate & Disodium Laureth Sulfosuccinate [STEPAN-MILD LSB],Normalized Zein Score of Surfactant,25%
